Data published in ChEMBL document CHEMBL1772947, “Discovery and optimization of a novel, selective and brain penetrant M1 positive allosteric modulator (PAM): the development of ML169, an MLPCN probe” (Bioorg Med Chem Lett, 2011).

Chains of the proteins cited; added tags and fusions are not shown. Lines headed by an entry give the natural chain unless they say otherwise; changes in a name come on top.
UniProt P08482: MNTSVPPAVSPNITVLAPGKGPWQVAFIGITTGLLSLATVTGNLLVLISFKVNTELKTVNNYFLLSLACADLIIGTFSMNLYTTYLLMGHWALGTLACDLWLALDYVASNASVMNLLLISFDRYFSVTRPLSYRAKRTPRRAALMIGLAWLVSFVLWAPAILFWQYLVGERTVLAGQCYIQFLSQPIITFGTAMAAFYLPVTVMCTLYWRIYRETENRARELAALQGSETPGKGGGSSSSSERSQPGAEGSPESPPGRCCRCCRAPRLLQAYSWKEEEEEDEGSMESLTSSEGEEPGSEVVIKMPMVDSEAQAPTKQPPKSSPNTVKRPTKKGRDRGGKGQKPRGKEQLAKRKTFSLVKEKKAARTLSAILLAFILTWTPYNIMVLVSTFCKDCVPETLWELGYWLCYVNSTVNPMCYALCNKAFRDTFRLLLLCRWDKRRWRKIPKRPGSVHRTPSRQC

Molecular target: Muscarinic acetylcholine receptor M1 (Rattus norvegicus) (UniProt P08482)
Assay: Allosteric modulation at rat M1 receptor expressed in CHO cells by calcium mobilization assay relative to acetylcholine
Assay type: functional, cell-based
Set-up: concentration or dose not given beside the values

`Cc1cc(NC(=O)CS(=O)(=O)c2cn(Cc3ccccc3Cl)c3ccccc23)no1` showed an Activity of 83%.
